Assay outcomes: PubChem BioAssay, ICCB-Longwood Screening Facility, Harvard Medical School
GIV-Gai inh: inhibitors of GIV GBA-motif binding to rat Galpha-i3; P08753; Galpha-i3/FITC-GIV peptide fluorescence polarization, 90 min; hits give low values; scaled: aluminum fluoride 0%, vehicle 100%; percent of control (FP), % (test concentration not listed); AID 1224905; hit rate 0.42% among 210,000;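 active = replicate mean at 85% of control or lower, very high polarization wells dropped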;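 note: wells of about 15 µL received 100 nL stock; the first replicate is given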
HCMV UL50-53 inh: inhibitors of HCMV UL50-UL53 interaction, biochemical, HTRF | HCMV UL50-UL53 nuclear egress complex (human cytomegalovirus) | normalized percent inhibition | inhibition, % (test concentration not listed) | 190,000 compounds, 0.15% hits | AID 1918969, 2023; in the data active = inhibition above about 27%, passing the limit was not always enough
GIV-Gai FP conf: inhibitors of GIV peptide binding to Galpha-i3, confirmation, biochemical, fluorescence polarization, FITC-GIV peptide, rat Galphai3; shares compounds with GIV-Gai inh; fluorescence polarization, mP at 100 µM; 580 compounds, 38% hits; hits give low values; AID 1259350, 2017;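 active = inhibition score of 15 or more, meaning 100 minus mean polarization as percent of control over three replicates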;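 note: lower mP means peptide displaced from Galphai3 so more inhibition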
GIV-Gai AS conf: inhibitors of GIV binding to Galpha-i3, confirmation, orthogonal assay for GIV-Galpha-i inhibitor project, biochemical, AlphaScreen, His-GIV, GST-Galphai3. shares compounds with GIV-Gai inh. purified proteins, 90 min; hits give low values. AlphaScreen counts at 100 µM. 580 compounds, 39% hits;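 active = inhibition score at or above a set limit, where the score is 100 minus the three-replicate mean percent of control signal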
The depositor's hits bear a star; x = no result. Only some compounds are listed: those with a hit (about 0.46% of all), similar ones and a draw of the others.

Preview (2 entries):
1	O=c1[nH]c(O)c(C=NCCSCc2cccs2)c(=O)[nH]1
2	Cc1nnc(SCC(=O)NCc2ccc(F)cc2)n(N)c1=O

Assay by compound	1	2
HCMV UL50-53 inh	-16	-10
GIV-Gai FP conf	x	x
GIV-Gai inh	x	98
GIV-Gai AS conf	x	x

Main list, repeating the preview:
1	O=c1[nH]c(O)c(C=NCCSCc2cccs2)c(=O)[nH]1
2	Cc1nnc(SCC(=O)NCc2ccc(F)cc2)n(N)c1=O
3	Cc1ccc(-n2nc3c(n2)/C(=N/O)CCC3)cc1
4	COc1ccc(-c2nc3c(n2O)CCC/C3=N\O)cc1
5	CCOC(=O)c1[nH]c(C)c(S(=O)(=O)N2CCc3ccccc32)c1C
6	CCC(C(=O)O)N1C(=O)COc2ccccc21 (stereo unspecified)
7	COc1ccccc1CNC(=O)c1cc(-c2ccc(Cl)cc2)nc2n[nH]c(-c3ccccc3)c12
8	O=C(Cc1ccc(Cl)cc1)NCCSc1ccccc1
9	Cc1ccc(C)n1-c1cccc(C(=O)O)c1
10	Cc1ccc(C)n1-c1ccc(C(=O)O)c(C(=O)O)c1

Assay by compound	1	2	3	4	5	6	7	8	9	10
HCMV UL50-53 inh	-16	-10	47*	-35	-30	-3	-28	-2	21	11
GIV-Gai FP conf	x	x	66	x	x	x	x	x	x	49*
GIV-Gai inh	x	98	79*	100	107	x	97	95	x	60*
GIV-Gai AS conf	x	x	23948*	x	x	x	x	x	x	3015*

11	Cc1ccc(C)n1-c1sccc1C(=O)CC#N
12	Cc1ccc(C)n1-c1ccc(CC(=O)O)cc1
13	CCc1ccc(-n2c(C)ccc2C)cc1
14	Cc1ccc(C)n1-c1sccc1C(=O)O
15	CC1=Nc2ccccc2/C1=C/c1sc(=O)n(-c2ccccc2)c1O
16	Cc1ccc(NC(=O)NCCCn2c(-c3ccncc3)nc3cccnc32)c(C)c1
17	O=C(NCc1ccc2c(c1)OCO2)c1c(-c2ccccc2)nnc2ccccc12
18	CC(=O)N/N=C/c1cc(C(C)C)cc(/C=N/NC(C)=O)c1O
19	CC(=O)N/N=C/c1ccccc1
20	CC(C)(CC(=O)O)CC(=O)Nc1ccc(C#N)cc1

Assay by compound	11	12	13	14	15	16	17	18	19	20
HCMV UL50-53 inh	-12	-23	-34	28	x	-6	-42	-85	-14	-26
GIV-Gai FP conf	x	33*	x	55	x	x	x	68	x	x
GIV-Gai inh	106	36*	x	27*	97	108	105	81*	101	101
GIV-Gai AS conf	x	2612*	x	3223*	x	x	x	27039	x	x

21	Cc1ccccc1-c1nn2c(=O)cc(N3CCN(C(=O)Nc4cccc(F)c4)CC3)nc2s1
22	Cc1cccc(-c2nn3c(=O)cc(N4CCN(C(=O)Nc5ccc6c(c5)OCO6)CC4)nc3s2)c1
23	Cc1ccccc1-c1nn2c(=O)cc(N3CCN(C(=O)Nc4ccccc4)CC3)nc2s1
24	Cc1cccc(NC(=O)N2CCN(c3cc(=O)n4nc(-c5cccc(C)c5)sc4n3)CC2)c1
25	CCC(=O)n1nc(C)c(S(=O)(=O)N2CCCC2)c1C
26	O=C(CSc1n[nH]c(=O)n1Cc1ccccc1)Nc1cc(Cl)cc(Cl)c1
27	CCc1nc2oc(C(=O)c3ccc(Cl)cc3)c(N)c2c2c1COC(C)(C)C2
28	CCc1nc2oc(C(=O)c3ccccc3)c(N)c2c2c1COC(C)(C)C2
29	CCOC(=O)c1c(-c2ccccc2)oc2c1cc(OC(=O)c1ccc(OCC)cc1)c1ccccc12
30	COc1cc(C=C2C(=O)NC(=O)NC2=O)ccc1OC(=O)c1cc(F)c(F)cc1Cl

Assay by compound	21	22	23	24	25	26	27	28	29	30
HCMV UL50-53 inh	-13	24	-11	19	-29	-2	-27	x	-5	-3
GIV-Gai FP conf	81	x	x	81	x	x	77	x	x	x
GIV-Gai inh	88	102	97	87	103	109	80*	100	105	101
GIV-Gai AS conf	28810	x	x	25822	x	x	46961	x	x	x

31	COc1ccc(C(=O)Oc2ccc(C=C3C(=O)NC(=O)NC3=O)cc2Cl)cc1
32	O=C(O)c1cc2c3c(c1)C1C=CCC1C(c1cccc([N+](=O)[O-])c1)N3CC1CC=CC21 (stereo unspecified)
33	O=C(O)c1cc2c3c(c1)C1C=CCC1C(c1ccccc1F)N3CC1CC=CC21 (stereo unspecified)
34	O=C(O)c1cc2c3c(c1)C1C=CCC1C(c1ccc(F)cc1)N3CC1CC=CC21 (stereo unspecified)
35	O=C(O)c1cc2c3c(c1)C1C=CCC1C(c1ccccc1)N3CC1CC=CC21 (stereo unspecified)
36	CN(C)c1nc(Nc2ccc(F)cc2)nc(-n2cccn2)n1
37	NC(=O)N/N=C/c1cccs1
38	Cc1ccsc1-c1nc(-c2cccc(NC(=O)NC(C)C)c2)no1
39	Nc1c(C(=O)Nc2cccc(Cl)c2)sc2nc3c(cc12)CN(Cc1ccccc1)CC3
40	COc1ccccc1NC(=O)c1sc2nc3c(cc2c1N)CCCCCC3

Assay by compound	31	32	33	34	35	36	37	38	39	40
HCMV UL50-53 inh	76*	-7	-19	5	9	6	-50	-27	-44	-22
GIV-Gai FP conf	60	x	21*	x	47*	x	x	x	81	x
GIV-Gai inh	76*	101	74*	99	81*	99	102	103	79*	104
GIV-Gai AS conf	24807*	x	3685*	x	7304*	x	x	x	31968	x

Three entries already listed, ordered by the number in GIV-Gai FP conf, high to low.
item | Structure | GIV-Gai FP conf | GIV-Gai inh | GIV-Gai AS conf
39 | Nc1c(C(=O)Nc2cccc(Cl)c2)sc2nc3c(cc12)CN(Cc1ccccc1)CC3 | 81 | 79* | 31968
31 | COc1ccc(C(=O)Oc2ccc(C=C3C(=O)NC(=O)NC3=O)cc2Cl)cc1 | 60 | 76* | 24807*
33 | O=C(O)c1cc2c3c(c1)C1C=CCC1C(c1ccccc1F)N3CC1CC=CC21 (stereo unspecified) | 21* | 74* | 3685*

Remaining list, next part:
41	Cc1cccc(NC(=O)c2sc3nc4c(cc3c2N)CN(Cc2ccccc2)CC4)c1
42	COc1ccc(NC(=O)c2sc3nc4c(cc3c2N)CCCCCC4)cc1OC
43	COCCCNS(=O)(=O)c1cc(-c2nc(C(C)(C)C)cs2)cs1
44	Cc1cc2nc3c(=O)[nH]c(=O)[nH]c3nc2cc1N
45	O=c1[nH]c(=O)c2nc3ccc(Cl)cc3nc2[nH]1
46	Cc1cc2nc3[nH]c(=O)[nH]c(=O)c3nc2cc1C
47	CN(C)c1ccc2nc3c(=O)[nH]c(=O)[nH]c3nc2c1
48	Cc1cccc(-c2nc3nc(CN(CCO)Cc4ccccc4)cc(=O)n3[nH]2)c1
49	O=C1NC(=O)/C(=C\c2ccccc2C(F)(F)F)S1
50	Cc1nc(Nc2ccc(NC(=O)Nc3ccc(Cl)cc3)cc2)cc(N(C)C)n1

Assay by compound	41	42	43	44	45	46	47	48	49	50
HCMV UL50-53 inh	-22	-47	x	x	x	-112	x	-18	-30	-36
GIV-Gai FP conf	x	81	x	46*	x	x	33*	x	x	x
GIV-Gai inh	100	80*	102	64*	103	x	77*	98	98	96
GIV-Gai AS conf	x	34749	x	30002*	x	x	14401*	x	x	x

51	O=C(COc1ccccc1C(=O)O)Nc1ccccc1F
52	Cc1cc(N2CCC(C)CC2)nc2ccc(NC(=O)c3ccc(F)cc3)cc12
53	Cc1ccc(C2=NS(=O)(=O)N(C)C(C(=O)Nc3ccc(F)cc3F)=C2)cc1
54	COc1ccc(OC)c(C2=NS(=O)(=O)N(C)C(C(=O)Nc3ccc(F)cc3F)=C2)c1
55	O=C1c2ccccc2-c2n[nH]c(=S)nc21
56	O=C1c2ccccc2-c2nc3nonc3nc21
57	CCN(CC)C(=O)Cn1cc(/C=C2/C(=O)N(C)c3ccccc32)c2ccccc21
58	CCc1cccc2c(/C=C3/C(=O)N(C)c4ccccc43)cn(CC(=O)NC3CCCC3)c12
59	COc1ccc(-n2ccc(=O)c(-c3nc(-c4ccccc4Cl)no3)n2)cc1
60	COc1ccc(C2c3sc(=O)[nH]c3SC3C(=O)N(c4ccccc4)C(=O)C32)cc1 (stereo unspecified)
61	O=C1NC(=O)C2C1Sc1[nH]c(=O)sc1C2c1ccco1 (stereo unspecified)
62	O=C1CCC(C(=O)OCc2ccccc2C(F)(F)F)=NN1
63	CCOC(=O)c1c(-c2ccc(Br)cc2)csc1/N=C/C1C(=O)NC(=S)NC1=O

Assay by compound	51	52	53	54	55	56	57	58	59	60	61	62	63
HCMV UL50-53 inh	12	-11	-34	-21	-170	36	x	x	x	-25	-86	-7	x
GIV-Gai FP conf	x	x	x	80	x	44*	x	34*	x	x	65	x	x
GIV-Gai inh	x	103	106	95	97	49*	104	80*	104	112	78*	x	90
GIV-Gai AS conf	x	x	x	32539	x	17911*	x	42825	x	x	3023*	x	x
